Here are results for two substances from paper PMC4183595, “Study on the Main Components Interaction from Flos Lonicerae and Fructus Forsythiae and Their Dissolution In Vitro and Intestinal Absorption in Rats” (PLoS ONE, 2014).

Data set [1] is described as follows: Rat in vivo pharmacokinetics study after oral administration of product A, B or C. The conditions noted are these: rats; for AUC 0→∞ / MRT / T 1/2z / T max: 10 mL·kg^−1; for AUC 0→t: oral product C group; for AUC 0→t in product C group, increased to % compared to that in product A or B groups: oral, product C versus product A or B; for C max: mean±SD. Also on record: species or system Male Sprague-Dawley (SD) rats; AUC 0→t in product C group, increased to % compared to that in product A or B groups: concentration or dose not given beside the values. As to the method: Product A (extract mixed with FLJ extract and water, (1∶1, v / v )), product B (extract mixed with FF extract and water, (1∶1, v / v )) and product C (extract mixed with FLJ and FF extracts, (1∶1, v / v )) were given to oral administration to rats, respectively.
Male SD rats (∼250 g) were kept in an environmentally controlled breeding room (temperature: 20±2°C, relative humidity: 60±5%) for 1 week. […] The rats were randomly divided into three groups with no less than six rats in each group to receive various administrations at a single oral dose (10 mL·kg^−1) by gastric gavage. […] Subsequently, plasma was prepared by centrifugation at 1,816×g, 4°C for 7 min, and immediately analyzed or stored at −70°C for further analysis.
The main pharmacokinetic parameters including the peak plasma concentration (C max), the time to C max (T max), the AUC from 0 to infinity (AUC 0–∞), the AUC form 0 to time (AUC 0–t), mean residence time (MRT), and terminal elimination half-life (T 1/2z) were calculated by the non-compartmental analysis of plasma concentration vs. time data using the “DAS 2.1.1” software (Mathematical Pharmacology Professional Committee of China, Shanghai, China).

The next data set deals with Caco-2 cells. Kind of data set: In vitro Caco-2 monolayer model, apical to basolateral transport (P app). Format: in vitro ADME, human. As to the method:
Caco-2 cells were cultured in high glucose DMEM with 10% fetal bovine serum, 1% nonessential amino acids. Cells were cultured in a humidified atmosphere of 5% CO2 at 37°C. After reaching 80% confluens, Caco-2 cells were harvested with 0.05% trypsin-EDTA solution and seeded on top of CC inserts in 6-well plates, which has a surface area of 4.2 cm^2, at a density of 1.0×10^5 cells/cm^2. The protocols for cell culture in Transwell inserts were similar to those described previously.
Hank’s balanced salt solution (HBSS) was used as the transport buffer for the transport study in Caco-2 cells monolayer model. It was prepared by dissolving 9.5 grams of commercial available HBSS powder in 1000 mL water.
Cell culture experiments were described previously. Briefly, after culture medium was aspirated, the cell monolayers were washed three times with blank HBSS. […] The monolayers were incubated with the blank HBSS for 1 h with 37°C. Thereafter the incubation medium was aspirated. Afterwards, a solution containing the compound was loaded onto the apical side. The amounts of transported compound were measured as a function of time. […] The samples were taken at 0, 1, 2, 3 and 4 h after incubation. At the end of the transport experiment, integrity of the monolayer was monitored by TEER value.

The test system of another data set is P-gp, MRP2 and BCRP. Also on record: method as in PMID 24035225, PMID 25442264. The conditions noted are these: previous study; ref [21]–[22]; cited from earlier work.
[2] abbreviates: single oral dose 10 mL·kg^−1 of product B (FF extract and water 1:1).
[3] abbreviates: single oral dose 10 mL·kg^−1 of product C (FLJ and FF extracts 1:1).

On to Phillyrin, for which, in data set [1] (oral product B), the “AUC 0→∞” value amounted to 389.31 ± 94.693 ng·min/mL, the mean residence time MRT is 5.27 ± 0.197 h, the “T 1/2z” value was 5.68 ± 0.32 h and the T max is 0.167 ± 0 h. In data set [1], the “AUC 0→t” value was found to be 3374.0±265.32 ng⋅min/mL and the “AUC 0→t in product C group, increased to % compared to that in product A or B groups” value was determined as 213%. Also, in data set [1] (oral product C), the “AUC 0→∞” value is 1316.5 ± 171.15 ng·min/mL, the mean residence time MRT stood at 8.68 ± 0.922 h, the “T 1/2z” value is 7.5 ± 0.873 h and the T max was found to be 0.167 ± 0 h. For the same substance, in data set [1] (setting [2]), the C max was determined as 2.24 ± 0.978 ng/mL. Besides, the C max in data set [1] (setting [3]) was 4.41 ± 0.0769 ng/mL. In addition, in the data set on Caco-2 cells, the “P app, product C group versus product B group” value is listed as “no significant difference”.
Consider Forsythoside B, for which, in data set [1] (oral product B), the “AUC 0→∞” value was 3249.3 ± 268.96 ng·min/mL, the mean residence time (MRT) was determined as 3.3 ± 0.445 h, the “T 1/2z” value came to 4.32 ± 0.607 h and the T max was 0.167 ± 0 h. Further, in data set [1], the “AUC 0→t” value is 5642.5±122.33 ng⋅min/mL and the “AUC 0→t in product C group, increased to % compared to that in product A or B groups” value was 175%. In data set [1] (oral product C), the “AUC 0→∞” value amounted to 5223.2 ± 666.32 ng·min/mL, the mean residence time (MRT) stood at 6.33 ± 0.722 h, the “T 1/2z” value was found to be 7.08 ± 0.845 h and the T max worked out at 0.167 ± 0 h. The substance further returned a C max in data set [1] (setting [2]) of 25.5 ± 9.37 ng/mL. Besides, the C max in data set [1] (setting [3]) turned out to be 46.6 ± 4.91 ng/mL. For the same substance, in the data set with P-gp, MRP2 and BCRP, the “efflux transporters influencing the intestinal absorption” value was “affected by P-gp and MRP2, not BCRP”. The “P app in product C group, % compared with that in product B group” value in the data set with Caco-2 cells (HBSS pH 6.0, apical to basolateral) stood at 210%.
